Assay results: PubChem BioAssay AID1851 (National Center for Advancing Translational Sciences (NCATS), 2009)
Shown are results outside the selection of hits, which stands elsewhere. Inconclusive results are not listed. The source made the active and inactive calls. The call rests on the fitted dose curve; in most records, active means well fitted curve in the direction sought with a large enough effect; inconclusive means small, poorly fitted or top-dose-only effect, or effect the other way; inactive means no such curve, though single readings can be large or run the other way.

Protein sequences, listed by entry. Tags and fused reporters are not part of them.
UniProt P10635, whole entry, looked up: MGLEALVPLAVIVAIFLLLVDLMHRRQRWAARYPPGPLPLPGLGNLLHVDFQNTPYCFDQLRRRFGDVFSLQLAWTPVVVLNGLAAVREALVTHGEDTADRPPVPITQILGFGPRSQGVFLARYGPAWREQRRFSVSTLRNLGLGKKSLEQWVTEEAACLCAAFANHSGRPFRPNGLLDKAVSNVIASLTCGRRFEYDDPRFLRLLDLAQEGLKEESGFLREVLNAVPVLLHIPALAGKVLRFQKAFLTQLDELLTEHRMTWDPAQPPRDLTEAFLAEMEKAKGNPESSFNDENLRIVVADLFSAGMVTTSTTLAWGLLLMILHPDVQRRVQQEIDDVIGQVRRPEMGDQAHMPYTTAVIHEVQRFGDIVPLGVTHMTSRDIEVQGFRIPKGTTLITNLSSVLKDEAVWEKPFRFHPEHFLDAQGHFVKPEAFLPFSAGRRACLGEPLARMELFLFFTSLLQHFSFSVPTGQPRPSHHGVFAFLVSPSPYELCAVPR

target: Cytochrome P450 2D6 (Homo sapiens) (UniProt P10635); assay: Cytochrome panel assay with activity outcomes; settings: recombinant CYP, pro-luciferin dealkylation, luminescence, p450-cyp2d6; series mostly up to 57.1 µM

| Compound | AC50 |
| --- | --- |
| Cn1c(=O)c(-c2ccccc2)nc2cnc(Nc3ccccc3)nc21 | inactive |
| Cc1nc2cnc(Nc3ccccc3)nc2n(CCC#N)c1=O | inactive |
| COCCn1c(=O)c(-c2ccccc2)nc2cncnc21 | inactive |
| O=C(c1csnn1)N1CCC[C@@]2(CCN(c3ncccn3)C2)C1 | inactive |
| Cn1c(=O)cnc2cnc(Oc3ccccc3)nc21 | inactive |
| O=C(c1cnccn1)N1CCC2(CCCN(c3ccc(-c4ccccc4)cc3)C2)CC1 | inactive |
| Cc1nc2cnc(Oc3ccccc3)nc2n(CCC#N)c1=O | inactive |
| Cn1cccc1C(=O)N1CCC2(CCCN(c3ccc(-c4ccccc4)cc3)C2)CC1 | inactive |
| COCCn1c(=O)c(CCc2ccccc2)nc2cncnc21 | inactive |
| COCCn1c(=O)c(-c2ccccc2)nc2cnc(Oc3ccc(OC)cc3)nc21 | inactive |
| O=C(Nc1cccc(F)c1)N1CC2(CCN(C(=O)c3csnn3)CC2)C1 | inactive |
| N#CCCn1c(=O)c(-c2ccc(Cl)cc2)nc2cnc(OCc3ccccc3)nc21 | inactive |
| CC(C)NC(=O)N1CC[C@@]2(CCCN(C(=O)c3cccc(F)c3)C2)C1 | inactive |
| O=C(Nc1cccc(F)c1)N1CC[C@@]2(CCCN(C(=O)c3ccco3)C2)C1 | inactive |
| CC(C)NC(=O)N1CCC2(CC1)CCN(C(=O)c1csnn1)CC2 | inactive |
| COc1cccc(Nc2ncc3ncc(=O)n(CCc4ccccc4)c3n2)c1 | inactive |
| O=c1cnc2cnc(Nc3ccccc3)nc2n1Cc1ccc(F)cc1 | inactive |
| COc1ccc(-n2c(=O)c(-c3cccs3)nc3cnc(Nc4ccccc4)nc32)cc1 | inactive |
| C#C[C@]1(O)CC[C@@H]2[C@H]3CCC4=Cc5oncc5C[C@]4(C)[C@@H]3CC[C@@]21C | active: 10 µM |
| O=C(c1ccco1)N1CCC2(CC1)CCN(c1cccc(-c3ccccc3)c1)CC2 | inactive |
| Cc1nc2cnc(OCc3ccccc3)nc2n(Cc2ccc(F)cc2)c1=O | inactive |
| Cn1c(=O)c(-c2cccs2)nc2cnc(OCc3ccccc3)nc21 | inactive |
| O=C(Nc1cccc(F)c1)N1CCCC2(CCN(C(=O)c3ccncc3)CC2)C1 | inactive |
| Cc1nc2cnc(Nc3ccccc3)nc2n(C2CC2)c1=O | inactive |
| COc1cccc(Nc2ncc3nc(C)c(=O)n(C)c3n2)c1 | inactive |
| COCCn1c(=O)c(CCc2ccccc2)nc2cnc(Oc3ccc(OC)cc3)nc21 | inactive |
| COCCn1c(=O)c(-c2ccc(F)cc2)nc2cnc(Nc3cccc(OC)c3)nc21 | inactive |
| CCNc1ncc2ncc(=O)n(Cc3cccc(OC)c3)c2n1 | inactive |
